Experimental findings from US8202902B2 are described below.

Series [1] deals with MDA-MB-231 and SK-OV-3 cancer cell lines. Nature of the series: Role of caspase-8, -3 and -9 (siRNA, caspase inhibitors) in activity of Smac mimetics.
For series [2], the system named is cIAP-1 in cancer cell lines. The series is described as follows: Induction of cIAP-1 degradation in cancer cells. Type of series: cell-based.
For series [3], the system named is sensitive cancer cell lines (MDA-MB-231, MALME-3M, SK-OV-3). The series is described as follows: XIAP knockdown by siRNA with exogenous TNFα, cell death. The settings on record: presence of exogenous TNFα.
Series [4] deals with resistant cancer cell lines (MDA-MB-453 breast, DU-145 prostate, MDA-MB-435 melanoma). The series is described as follows: Secreted TNFα in cell culture medium (ELISA), resistant lines.
For series [5], the system named is Sensitive cancer cell lines. The series is described as follows: Secreted TNFα in cell culture medium (ELISA), sensitive lines.
The subject of series [6] is MDA-MB-231 xenograft tumor tissues. The series is described as follows: cIAP-1 degradation and apoptosis in MDA-MB-231 xenograft tumor and normal tissues. Format: in vivo, mice.
For series [7], the system named is sensitive cell lines (MDA-MB-231, SK-OV-3). The series is described as follows: cIAP-1/2 removal and apoptosis induction by SM-122. The note with it: 100 nM.
Series [8] has as its system XIAP stably transfected Jurkat leukemia cell line (XIAP-JK) and vector control cell line (VEC-JK). The series is described as follows: XIAP-overexpressing Jurkat cells, Smac mimetics with TNFα.
The test system of series [9] is MDA-MB-231, MALME-3M and SK-OV-3 cell lines. The series is described as follows: Cell death induction with TNFα or TRAIL neutralizing antibody.
Series [10] relates to HCT116 XIAP^+/+ and XIAP^−/− isogenic cell lines. Nature of the series: HCT116 XIAP+/+ and XIAP-/- isogenic cell lines, Smac mimetics with TNFα. Format: cell-based. The settings on record: for caspase-3 activation, PARP cleavage and cell growth inhibition: 100-1,000 nM with exogenous TNFα.
[11] abbreviates: 100 and 1,000 nM, XIAP-JK cells.

As to `CN[C@@H](C)C(=O)N[C@H]1CCCC[C@H]2CC[C@@H](C(=O)NC(c3ccccc3)c3ccccc3)N2C1=O`, in series [1], the “effect of knockdown of caspase-3 and -8 on activity” value is listed as “markedly attenuated”; the “effect of knockdown of caspase-9 on activity” value was “minimal effect”. Also, in series [2] (10-100 nM, sensitive cancer cell lines), the “cIAP-1 level / degradation” value is recorded as “effectively induced degradation of cIAP-1”. Also, the cIAP-1 degradation entry in series [2] (resistant cancer cell lines) is “rapid cIAP-1 degradation”. In addition, the “sensitization by knockdown of XIAP” value in series [3] is reported as “dramatically sensitized”. Further, the “induction of TNFα” value in series [4] is recorded as “failed to induce detectable levels of TNFα”. Besides, in series [5], the “secretion of TNFα” value is “further enhanced”. Moreover, in [6] (single dose 100 mg/kg iv), the “PARP cleavage in tumor tissues” value is “minimal effect” and the “cIAP-1 degradation in tumor tissues” value was “effectively induces cIAP-1 degradation”. For the same molecule, in [6] (single dose iv), the “near maximum tolerated dose” value was 100 mg/kg. For the same molecule, in series [7], the apoptosis induction entry is reported as “minimal apoptosis”; the “levels of cIAP-1 and cIAP-2” value was “markedly decreased”. Also, the “effect of exogenous TNFα on cell killing” value in series [7] (excess exogenous TNFα) is on record as “minimal effect”. In addition, in [8] (setting [11]), the “apoptosis induction in combination with TNFα” value was “ineffective in induction of apoptosis”; the cIAP-1 degradation result is “efficiently and rapidly degraded cIAP-1”. The “sensitivity in combination with TNFα” value in series [8] (VEC-JK cell line) is “sensitive”. Further, the “sensitivity in combination with TNFα” value in series [8] (XIAP-JK cell line) was “extremely resistant”. Also, in series [9], the “cell death induction in presence of neutralizing antibodies” value is “effectively blocked by a TNFα, but not by a TRAIL, neutralizing antibody”. Moreover, the “caspase-3 activation, PARP cleavage and cell growth inhibition” value in series [10] (XIAP+/+ cell line) is listed as “modest effect”. In addition, the “caspase-3 activation, PARP cleavage and cell growth inhibition” value in series [10] (XIAP-/- cell line) is given as “highly effective”. For the same molecule, the cIAP-1 degradation result in series [10] (100-1,000 nM, both cell lines) is recorded as “effectively induced cIAP-1 degradation”. Also, in series [10] (both cell lines), the “sensitivity as a single agent” value is reported as “resistant”.
